The text below walks through data of patent publication US20250381110A1, “SKIN CARE COMPOSITION AND METHOD OF USING THE SAME” (THE PROCTER & GAMBLE COMPANY, priority 2024, published 2025).

The assay relates to p62-dependent mitophagy. Nature of the assay: Luciferase-p62 assay (Fluc-p62 clearance) in mouse embryonic fibroblasts. Format: cell-based. To be noted: MEFs, 10 μM.

Turning to `CC1=C2C[C@H]3[C@@H](CC=C4C[C@@H](O)CC[C@@]43C)[C@@H]2CC[C@]12O[C@@H]1C[C@H](C)CN[C@H]1[C@H]2C` [Cyclopamine], the “% Activity over baseline” value (percentage of Luciferase-p62 clearance relative to baseline (mean luminescence in the absence of doxycycline induction)) stood at 70.83%. Where the note is “percentage of activity relative to rapamycin tested in the same experiment at the same concentration”, the “% Activity relative to Rapamycin” value amounted to 127.63%.
